From ChEMBL document CHEMBL5252510, “A Novel Potent Oral Series of VEGFR2 Inhibitors Abrogate Tumor Growth by Inhibiting Angiogenesis” (J Med Chem, 2016)

Legend:
[1] = Selectivity ratio of IC50 for mouse VEGFR2 to IC50 for human VEGFR2
Homo sapiens [2] = species on record: Homo sapiens; test: Selectivity ratio of IC50 for human VEGFR2 to IC50 for human VEGFR3
Homo sapiens [3] = species on record: Homo sapiens; test: Selectivity ratio of IC50 for human VEGFR2 to IC50 for human VEGFR1

Ratio IC50 [1] | Ratio IC50 (Homo sapiens [2]) | Ratio IC50 (Homo sapiens [3]) | Structure (SMILES)
17 | – | – | Nc1nccc(Oc2ccc3c(C(=O)Nc4cccc(C(F)(F)F)c4)cccc3c2)n1
500 | 500 | 500 | O=C(Nc1cccc(C(F)(F)F)c1)c1cccc2cc(Oc3cc(CO)ncn3)ccc12 [BFH-772]
